Laboratory results: patent US20190330224A1, “ACC INHIBITORS AND USES THEREOF” (Gilead Apollo, LLC, priority 2015, published 2019)

Protein sequences, listed by entry. Tags and fused reporters are not part of them.
UniProt Q00955, whole entry: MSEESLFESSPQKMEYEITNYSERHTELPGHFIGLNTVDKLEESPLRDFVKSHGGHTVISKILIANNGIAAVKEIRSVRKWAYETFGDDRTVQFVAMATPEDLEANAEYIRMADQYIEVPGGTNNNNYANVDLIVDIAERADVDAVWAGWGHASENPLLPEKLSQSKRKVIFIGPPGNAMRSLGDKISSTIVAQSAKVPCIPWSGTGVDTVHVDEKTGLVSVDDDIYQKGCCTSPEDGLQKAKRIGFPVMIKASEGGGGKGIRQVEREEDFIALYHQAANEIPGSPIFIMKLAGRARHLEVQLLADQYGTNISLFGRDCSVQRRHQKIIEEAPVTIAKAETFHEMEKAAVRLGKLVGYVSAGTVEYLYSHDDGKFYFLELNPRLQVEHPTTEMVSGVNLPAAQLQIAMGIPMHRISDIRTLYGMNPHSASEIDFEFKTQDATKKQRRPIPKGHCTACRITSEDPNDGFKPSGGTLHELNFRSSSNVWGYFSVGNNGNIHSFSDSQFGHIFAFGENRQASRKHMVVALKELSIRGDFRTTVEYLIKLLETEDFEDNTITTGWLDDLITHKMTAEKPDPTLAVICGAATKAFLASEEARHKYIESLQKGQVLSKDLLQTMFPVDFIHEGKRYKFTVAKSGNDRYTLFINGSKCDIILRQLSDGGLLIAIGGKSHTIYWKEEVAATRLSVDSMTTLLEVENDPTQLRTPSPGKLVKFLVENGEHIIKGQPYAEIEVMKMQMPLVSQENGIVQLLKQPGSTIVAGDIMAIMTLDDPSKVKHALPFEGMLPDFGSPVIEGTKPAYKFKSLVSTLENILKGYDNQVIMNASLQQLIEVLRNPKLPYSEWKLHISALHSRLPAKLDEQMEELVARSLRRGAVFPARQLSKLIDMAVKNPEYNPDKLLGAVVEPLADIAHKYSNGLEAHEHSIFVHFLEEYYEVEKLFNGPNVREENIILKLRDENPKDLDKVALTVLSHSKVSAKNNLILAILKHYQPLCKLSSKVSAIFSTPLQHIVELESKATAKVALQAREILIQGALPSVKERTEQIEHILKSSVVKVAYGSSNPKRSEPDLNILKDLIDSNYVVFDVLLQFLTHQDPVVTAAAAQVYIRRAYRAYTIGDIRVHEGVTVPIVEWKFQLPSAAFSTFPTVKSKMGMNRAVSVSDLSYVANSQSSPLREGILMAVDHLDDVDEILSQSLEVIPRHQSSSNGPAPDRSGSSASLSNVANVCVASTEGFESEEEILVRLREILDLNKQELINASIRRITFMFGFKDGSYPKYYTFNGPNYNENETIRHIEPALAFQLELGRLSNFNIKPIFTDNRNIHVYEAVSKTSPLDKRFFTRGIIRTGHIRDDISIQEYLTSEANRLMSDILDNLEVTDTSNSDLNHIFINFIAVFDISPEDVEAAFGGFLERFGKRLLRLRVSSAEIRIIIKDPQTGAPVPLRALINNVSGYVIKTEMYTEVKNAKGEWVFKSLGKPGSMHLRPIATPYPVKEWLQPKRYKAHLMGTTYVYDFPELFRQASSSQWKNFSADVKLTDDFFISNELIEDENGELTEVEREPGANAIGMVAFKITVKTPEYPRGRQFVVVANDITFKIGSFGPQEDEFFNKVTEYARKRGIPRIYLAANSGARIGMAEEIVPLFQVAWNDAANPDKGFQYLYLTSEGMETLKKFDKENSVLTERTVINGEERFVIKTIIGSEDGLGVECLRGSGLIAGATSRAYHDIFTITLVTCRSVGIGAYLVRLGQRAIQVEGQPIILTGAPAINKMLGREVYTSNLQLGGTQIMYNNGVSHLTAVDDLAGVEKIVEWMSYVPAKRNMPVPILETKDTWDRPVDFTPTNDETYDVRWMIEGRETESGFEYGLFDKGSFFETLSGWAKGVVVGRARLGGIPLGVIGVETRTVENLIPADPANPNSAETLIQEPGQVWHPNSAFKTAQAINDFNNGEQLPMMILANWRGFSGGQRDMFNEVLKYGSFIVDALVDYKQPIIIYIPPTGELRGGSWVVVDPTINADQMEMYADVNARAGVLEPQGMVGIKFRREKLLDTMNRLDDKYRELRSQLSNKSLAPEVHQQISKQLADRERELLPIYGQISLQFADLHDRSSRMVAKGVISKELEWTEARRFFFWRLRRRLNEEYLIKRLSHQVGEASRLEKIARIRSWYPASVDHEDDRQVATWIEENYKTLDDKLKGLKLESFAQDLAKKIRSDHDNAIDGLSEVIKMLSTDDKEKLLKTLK

These compounds were tested against Fungal ACC2 (UniProt Q00955). Conditions: read-out: Fungal ACC2 (IC50, in vitro ACC2 inhibition).
`COc1ccc(F)cc1[C@H](Cn1c(=O)n(C2CCCN(C(C)C)C2=O)c(=O)c2c(C)c(-n3nccn3)sc21)OCCO` (stereo partly drawn) [Compound I-20, 1-((R)-2-(5-fluoro-2-methoxyphenyl)-2-(2-hydroxy-ethoxy)ethyl)-3-(1-isopropyl-2-oxopiperidin-3-yl)-5-methyl-6-(2H-1,2,3-triazol-2-yl)thieno[2,3-d]pyrimidine-2,4(1H,3H)-dione] gave an IC50 of 0.7 to 2 nM. Compound `COc1ccc(F)cc1[C@H](Cn1c(=O)n([C@]2(C)CCN(C)C2=O)c(=O)c2c(C)c(-n3nccn3)sc21)OCCO` [Compound I-147, 3-((R)-1,3-dimethyl-2-oxopyrrolidin-3-yl)-1-((R)-2-(5-fluoro-2-methoxyphenyl)-2-(2-hydroxyethoxy)ethyl)-5-methyl-6-(2H-1,2,3-triazol-2-yl)thieno[2,3-d]pyrimidine-2,4(1H,3H)-dione] has an IC50 of over 1000 nM. `CCN1CC[C@H](n2c(=O)c3c(C)c(-n4nccn4)sc3n(C[C@H](OC3CCOCC3)c3cc(F)ccc3OC)c2=O)C1=O` [Compound I-150, 3-((S)-1-ethyl-2-oxopyrrolidin-3-yl)-1-((R)-2-(5-fluoro-2-methoxyphenyl)-2-((tetrahydro-2H-pyran-4-yl)oxy)ethyl)-5-methyl-6-(2H-1,2,3-triazol-2-yl)thieno[2,3-d]pyrimidine-2,4(1H,3H)-dione] was tested, and the IC50 was 0.7 to 2 nM. Compound `COc1ccc(F)cc1[C@H](Cn1c(=O)n([C@@H]2CCCNC2=O)c(=O)c2c(C)c(-c3ncco3)sc21)OCCO` [Compound I-64, 1-((R)-2-(5-fluoro-2-methoxyphenyl)-2-(2-hydroxy-ethoxy)ethyl)-5-methyl-6-(oxazol-2-yl)-3-((R)-2-oxopiperidin-3-yl)thieno[2,3-d]pyrimidine-2,4(1H,3H)-dione] has an IC50 of 2 to 10 nM. In the case of `COc1ccc(F)cc1[C@H](Cn1c(=O)n([C@H]2CCCN(C)C2=O)c(=O)c2c(C)c(-c3ncco3)sc21)OCCO` [Compound I-63, 1-((R)-2-(5-fluoro-2-methoxyphenyl)-2-(2-hydroxy-ethoxy)ethyl)-5-methyl-3-((S)-1-methyl-2-oxopiperidin-3-yl)-6-(oxazol-2-yl)thieno[2,3-d]pyrimidine-2,4(1H,3H)-dione], the IC50 is reported as 2 to 10 nM. `COc1ccc(F)cc1[C@H](Cn1c(=O)n([C@H]2CCNC2=O)c(=O)c2c(C)c(-n3nccn3)sc21)OC1CCOCC1` [Compound I-33, 1-((R)-2-(5-fluoro-2-methoxyphenyl)-2-((tetrahydro-2H-pyran-4-yl)oxy)ethyl)-5-methyl-3-((S)-2-oxopyrrolidin-3-yl)-6-(2H-1,2,3-triazol-2-yl)thieno[2,3-d]pyrimidine-2,4(1H,3H)-dione] gave an IC50 of 0.7 to 2 nM. In the case of `COc1ccc(F)cc1[C@H](Cn1c(=O)n(C2CCN(C(C)C)C2=O)c(=O)c2c(C)c(-n3nccn3)sc21)OCCO` (stereo partly drawn) [Compound I-8, 1-((R)-2-(5-fluoro-2-methoxyphenyl)-2-(2-hydroxyethoxy)ethyl)-3-(1-isopropyl-2-oxopyrrolidin-3-yl)-5-methyl-6-(2H-1,2,3-triazol-2-yl)thieno[2,3-d]pyrimidine-2,4(1H,3H)-dione], the IC50 is reported as 0.7 to 2 nM. Work on `COc1ccccc1[C@H](Cn1c(=O)n(C2CCCN(C)C2=O)c(=O)c2c(C)c(-c3ncco3)sc21)OC1CCOCC1` (stereo partly drawn) [Compound I-50, 1-((R)-2-(2-methoxyphenyl)-2-((tetrahydro-2H-pyran-4-yl)oxy)ethyl)-5-methyl-3-(1-methyl-2-oxopiperidin-3-yl)-6-(oxazol-2-yl)thieno[2,3-d]pyrimidine-2,4(1H,3H)-dione] yielded an IC50 of 2 to 10 nM. With `COc1ccccc1[C@H](Cn1c(=O)n(C2CCN(C)C2=O)c(=O)c2c(C)c(-c3ncco3)sc21)OC1CCOCC1` (stereo partly drawn) [Compound I-57, 1-((R)-2-(2-methoxyphenyl)-2-((tetrahydro-2H-pyran-4-yl)oxy)ethyl)-5-methyl-3-(1-methyl-2-oxopyrrolidin-3-yl)-6-(oxazol-2-yl)thieno[2,3-d]pyrimidine-2,4(1H,3H)-dione] the IC50 was 0.7 to 2 nM. `COc1ccc(F)cc1[C@H](Cn1c(=O)n(C2CCCNC2=O)c(=O)c2c(C)c(-n3nccn3)sc21)OC1CCOCC1` (stereo partly drawn) [Compound I-21, 1-((R)-2-(5-fluoro-2-methoxyphenyl)-2-((tetrahydro-2H-pyran-4-yl)oxy)ethyl)-5-methyl-3-(2-oxopiperidin-3-yl)-6-(2H-1,2,3-triazol-2-yl)thieno[2,3-d]pyrimidine-2,4(1H,3H)-dione] showed an IC50 of 0.7 to 2 nM. `COc1ccc(F)cc1[C@H](Cn1c(=O)n(C2CCNC2=O)c(=O)c2c(C)c(-n3nccn3)sc21)OC1CCOCC1` (stereo partly drawn) [Compound I-9, 1-((R)-2-(5-fluoro-2-methoxyphenyl)-2-((tetrahydro-2H-pyran-4-yl)oxy)ethyl)-5-methyl-3-(2-oxopyrrolidin-3-yl)-6-(22H-1,2,3-triazol-2-yl)thieno[2,3-d]pyrimidine-2,4(1H,3H)-dione] showed an IC50 of 0.7 to 2 nM. `COc1ccc(F)cc1[C@H](Cn1c(=O)n(C2CCCN(C)C2=O)c(=O)c2c(C)c(-c3ncco3)sc21)OC1CCOCC1` (stereo partly drawn) [Compound I-52, 1-((R)-2-(5-fluoro-2-methoxyphenyl)-2-((tetrahydro-2H-pyran-4-yl)oxy)ethyl)-5-methyl-3-(I-methyl-2-oxopiperidin-3-yl)-6-(oxazol-2-yl)thieno[2,3-d]pyrimidine-2,4(1H,3H)-dione] was tested, and the IC50 was 0.7 to 2 nM. For `COc1ccc(F)cc1[C@H](Cn1c(=O)n([C@@H]2CCCN(C(C)C)C2=O)c(=O)c2c(C)c(-n3nccn3)sc21)OC1CCOCC1` [Compound I-77, 1-((R)-2-(5-fluoro-2-methoxyphenyl)-2-((tetrahydro-2H-pyran-4-yl)oxy)ethyl)-3-((R)-1-isopropyl-2-oxopiperidin-3-yl)-5-methyl-6-(2H-1,2,3-triazol-2-yl)thieno[2,3-d]pyrimidine-2,4(1H,3H)-dione], the IC50 was 0.7 to 2 nM. `CCN1CCC(n2c(=O)c3c(C)c(-n4nccn4)sc3n(C[C@H](OC3CCOCC3)c3cc(F)ccc3OC)c2=O)C1=O` (stereo partly drawn) [Compound I-11, 3-(1-ethyl-2-oxopyrrolidin-3-yl)-1-((R)-2-(5-fluoro-2-methoxyphenyl)-2-((tetrahydro-2H-pyran-4-yl)oxy)ethyl)-5-methyl-6-(2H-1,2,3-triazol-2-yl)thieno[2,3-d]pyrimidine-2,4(1H,3H)-dione] showed an IC50 of 2 to 10 nM. For `COc1ccc(F)cc1[C@H](Cn1c(=O)n([C@@]2(C)CCN(C)C2=O)c(=O)c2c(C)c(-n3nccn3)sc21)OCCO` [Compound I-149, 3-((S)-1,3-dimethyl-2-oxopyrrolidin-3-yl)-1-((R)-2-(5-fluoro-2-methoxyphenyl)-2-(2-hydroxyethoxy)ethyl)-5-methyl-6-(2H-1,2,3-triazol-2-yl)thieno[2,3-d]pyrimidine-2,4(1H,3H)-dione], the IC50 was over 1000 nM. Work on `COc1ccc(F)cc1[C@H](Cn1c(=O)n([C@]2(C)CCNC2=O)c(=O)c2c(C)c(-n3nccn3)sc21)OCCO` [Compound I-144, 1-((R)-2-(5-fluoro-2-methoxyphenyl)-2-(2-hydroxyethoxy)ethyl)-5-methyl-3-((R)-3-methyl-2-oxopyrrolidin-3-yl)-6-(2H-1,2,3-triazol-2-yl)thieno[2,3-d]pyrimidine-2,4(1H,3H)-dione] yielded an IC50 of over 1000 nM. `COc1ccc(F)cc1[C@H](Cn1c(=O)n([C@@H]2CCNC2=O)c(=O)c2c(C)c(-n3nccn3)sc21)OC1CCOCC1` [Compound I-34, 1-((R)-2-(5-fluoro-2-methoxyphenyl)-2-((tetrahydro-2H-pyran-4-yl)oxy)ethyl)-5-methyl-3-((R)-2-oxopyrrolidin-3-yl)-6-(2H-1,2,3-triazol-2-yl)thieno[2,3-d]pyrimidine-2,4(1H,3H)-dione] showed an IC50 of 0.7 to 2 nM. `COc1ccc(F)cc1[C@H](Cn1c(=O)n([C@@]2(C)CCNC2=O)c(=O)c2c(C)c(-n3nccn3)sc21)OCCO` [Compound I-145, 1-((R)-2-(5-fluoro-2-methoxyphenyl)-2-(2-hydroxy-ethoxy)ethyl)-5-methyl-3-((S)-3-methyl-2-oxopyrrolidin-3-yl)-6-(2H-1,2,3-triazol-2-yl)thieno[2,3-d]pyrimidine-2,4(1H,3H)-dione] was tested, and the IC50 was over 1000 nM. For `COc1ccc(F)cc1[C@H](Cn1c(=O)n(C2CCNC2=O)c(=O)c2c(C)c(-c3ncco3)sc21)OC1CCOCC1` (stereo partly drawn) [Compound I-58, 1-((R)-2-(5-fluoro-2-methoxyphenyl)-2-((tetrahydro-2H-pyran-4-yl)oxy)ethyl)-5-methyl-6-(oxazol-2-yl)-3-(2-oxopyrrolidin-3-yl)thieno[2,3-d]pyrimidine-2,4(1H,3H)-dione], the IC50 was 2 to 10 nM. `COc1ccc(F)cc1[C@H](Cn1c(=O)n(C2CCCN(C(C)C)C2=O)c(=O)c2c(C)c(-n3nccn3)sc21)OC1CCOCC1` (stereo partly drawn) [Compound I-24] gave an IC50 of 0.7 to 2 nM. Work on `COc1ccc(F)cc1[C@H](Cn1c(=O)n([C@]2(C)CCC(=O)NC2)c(=O)c2c(C)c(-n3nccn3)sc21)OCCO` [Compound I-133, 1-((R)-2-(5-fluoro-2-methoxyphenyl)-2-(2-hydroxy-ethoxy)ethyl)-5-methyl-3-((R)-3-methyl-6-oxopiperidin-3-yl)-6-(2H-1,2,3-triazol-2-yl)thieno[2,3-d]pyrimidine-2,4(1H,3H)-dione] yielded an IC50 of 0.7 to 2 nM.
